Ab-14 heavy chain CDR variants: yeast mating affinities

Values reported by Engelhart et al. 2022, doi:10.1038/s41597-022-01779-4 (FLAb copy).

Target: peptide PDVDLGDISGINAS, taken from heptad repeat 2 (HR2) of SARS-CoV-2 spike.

The variants keep the light chain, the linker and the frameworks of Ab-14 (scFv order VH, the linker GGGGSGGGGSGGGGS, VL).
VH: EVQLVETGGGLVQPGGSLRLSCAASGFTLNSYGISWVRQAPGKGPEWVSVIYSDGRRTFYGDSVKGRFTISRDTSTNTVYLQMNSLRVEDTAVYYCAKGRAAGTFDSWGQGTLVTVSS
VL: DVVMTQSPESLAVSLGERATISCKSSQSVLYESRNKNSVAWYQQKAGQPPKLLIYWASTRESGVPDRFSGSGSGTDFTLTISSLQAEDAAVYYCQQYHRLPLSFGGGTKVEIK

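AAYL49 was designed without a model: most single CDR substitutions and a random sample of double and triple ones. The assay is AlphaSeq: two haploid yeast populations carry antibody and antigen on their surface. Pairs that bind mate more often; barcode pairs of the diploids are counted by sequencing. A regression on co-assayed BCL2-family reference pairs converts the normalised counts of each replicate to an apparent Kd. There are three technical replicates.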

Substitutions are numbered in sequence along the VH above, starting at 1 (not Kabat). Kd is apparent (estimated from mating counts) and averaged on the log scale over replicates with a signal. Smaller is tighter. Where no diploid with the target was found in any replicate, the entry reads "not detected": below detection, most likely a poor binder, though not proof of it.

changes,Kd (apparent),replicates with signal
I51Y+Y52V+R56W,1.0 µM,1/3
L29F+R57Q+T104W,not detected,0/3
T28Y+V50H+S53G,not detected,0/3
N30L+G99S,not detected,0/3
S63Q+A101P+T104Q,12 nM,3/3
Y32R+S53P+F105R,not detected,0/3
Y32R+V50I+T104P,not detected,0/3
V50M+Y52W+A101P,not detected,0/3
S35H+G55M+G99H,not detected,0/3
F27R+Y60V+D62Y,5.9 µM,2/3
T28P+V50R+R56S,not detected,0/3
V50D+D54S+A102P,470 µM,1/3
Y60F+G61L+F105A,not detected,0/3
F59M+K65I+A101C,170 nM,3/3
D54E+R57P+T104Q,47 µM,1/3
D54Y+R56E+D106E,1.6 µM,1/3
G33W+G55R,not detected,0/3
L29S+R100L+A101F,not detected,0/3
S53H+F59Y+G99Q,not detected,0/3
I51W+K65V+A102C,not detected,0/3
I51W+G61T+A102S,not detected,0/3
F59T+S63N+R100G,not detected,0/3
T28V+R57A+T104R,not detected,0/3
G26L+S53E+D106Y,not detected,0/3
S35V+G61A+S63R,160 µM,1/3
S31G+V64N+F105A,4.7 µM,3/3
S35W+D54I+R57K,not detected,0/3
G26Q+G33F+G99R,not detected,0/3
T28A+G55M+G61F,not detected,0/3
S35G+G61Y+S63P,15 µM,1/3
Y52H+G103I+T104K,2.1 µM,1/3
I51M+D106S,42 nM,3/3
S31D+I34T+V50W,not detected,0/3
I34R+I51W+S53G,not detected,0/3
S35W+R100C+A101E,not detected,0/3
T28D+G33H+V50E,640 µM,1/3
R56D+G99D+F105Q,22 nM,3/3
T28W+V50P+A101L,not detected,0/3
L29S+N30S+I51S,not detected,0/3
Y52I+R56V+R57W,550 µM,1/3
S35N+G61V+T104F,480 nM,1/3
F27K+G33P,not detected,0/3
I51V+G55E+A102Y,not detected,0/3
S35L+F105H+S107E,not detected,0/3
T28R+R57S+A101K,2.6 µM,1/3
F27Y+S35A,not detected,0/3
A102S+T104C,not detected,0/3
V50P+T58V+D106K,not detected,0/3
T104Q+D106P,2.6 µM,1/3
F27Y+L29F+S53H,2.9 µM,3/3
S31W+A101S,3.0 µM,3/3
S35W+S63Y+G99T,not detected,0/3
G33M+R56M+G99Q,not detected,0/3
R57H+D62M,not detected,0/3
T58V+Y60P,not detected,0/3
V50I+D54F,2.8 µM,1/3
F27I+S31W+V50R,50 µM,2/3
I34K+R57G+G61T,not detected,0/3
S63M+A102I+S107L,11 µM,3/3
S31H+S63A+T104E,46 nM,3/3
F27G+N30V,not detected,0/3
F27V+S35D,3.7 µM,1/3
I51E+V64D+S107T,not detected,0/3
T28L+I34W+Y52R,not detected,0/3
S53R+T58M+G103M,not detected,0/3
D54E+G61S+F105T,not detected,0/3
Y52H+D62Y,not detected,0/3
L29H+S35E+G103F,61 µM,1/3
N30G+V50L+D54I,9.1 µM,2/3
L29G+I51Q+Y52R,50 µM,2/3
I51H+F105D+S107Q,not detected,0/3
S31P+K65L,11 µM,1/3
S31D+V64R+T104C,not detected,0/3
G26L+R57F+G61S,89 µM,1/3
R57F+T58H+S107P,220 µM,1/3
V50F+V64A+F105Y,not detected,0/3

Picked from the list: the 7 lowest averages where every replicate gave a value.

changes,Kd (apparent),replicates with signal
S63Q+A101P+T104Q,12 nM,3/3
R56D+G99D+F105Q,22 nM,3/3
I51M+D106S,42 nM,3/3
S31H+S63A+T104E,46 nM,3/3
F59M+K65I+A101C,170 nM,3/3
F27Y+L29F+S53H,2.9 µM,3/3
S31W+A101S,3.0 µM,3/3

Empty control strains, which show no peptide, gave a signal in 15% of pairings with library AAYL49; the median was 11 µM and 95% of these signals were weaker than 680 nM. No background was subtracted. Parent in this assay: reference entry 4.4 nM, copy in this library 13 µM (one replicate of three).